Data: patent US9487511B2, “Cyclopropanamine compound and use thereof” (Takeda Pharmaceutical Company Limited, priority 2014, dated 2016)

Chains of the proteins cited; added tags and fusions are not shown.
UniProt P27338, whole entry: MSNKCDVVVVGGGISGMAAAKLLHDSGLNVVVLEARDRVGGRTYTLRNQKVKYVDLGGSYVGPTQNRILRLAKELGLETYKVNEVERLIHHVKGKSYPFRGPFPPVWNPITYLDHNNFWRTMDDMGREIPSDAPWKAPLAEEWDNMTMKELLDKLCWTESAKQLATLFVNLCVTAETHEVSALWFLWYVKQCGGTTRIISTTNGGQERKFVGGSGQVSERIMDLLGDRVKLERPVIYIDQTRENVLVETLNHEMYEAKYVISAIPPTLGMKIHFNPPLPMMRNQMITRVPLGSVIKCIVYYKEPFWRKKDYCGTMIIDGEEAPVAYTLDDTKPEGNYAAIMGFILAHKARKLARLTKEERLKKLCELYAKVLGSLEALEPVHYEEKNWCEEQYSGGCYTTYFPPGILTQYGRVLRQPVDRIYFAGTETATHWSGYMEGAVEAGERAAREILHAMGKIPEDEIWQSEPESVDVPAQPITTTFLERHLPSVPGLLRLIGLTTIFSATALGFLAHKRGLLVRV
UniProt P21397, whole entry: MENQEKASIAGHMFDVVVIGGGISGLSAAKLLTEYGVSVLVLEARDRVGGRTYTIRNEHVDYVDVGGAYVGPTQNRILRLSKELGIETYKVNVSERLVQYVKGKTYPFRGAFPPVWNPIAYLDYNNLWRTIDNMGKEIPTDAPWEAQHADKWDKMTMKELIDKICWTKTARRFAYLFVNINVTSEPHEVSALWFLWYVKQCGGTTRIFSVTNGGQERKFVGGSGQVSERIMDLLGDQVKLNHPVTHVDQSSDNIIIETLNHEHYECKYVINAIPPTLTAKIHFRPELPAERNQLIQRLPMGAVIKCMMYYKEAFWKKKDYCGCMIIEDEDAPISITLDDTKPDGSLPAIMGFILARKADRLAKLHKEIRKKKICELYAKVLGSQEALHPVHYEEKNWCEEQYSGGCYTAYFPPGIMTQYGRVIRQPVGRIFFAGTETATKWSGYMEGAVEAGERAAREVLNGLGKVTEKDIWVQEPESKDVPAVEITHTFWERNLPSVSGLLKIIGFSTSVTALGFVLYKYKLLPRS

Assays:
MAO-B enzyme = MAO-B enzyme (Homo sapiens (Human), UniProt P27338); experiment: Measurement of MAO-B inhibitory activity (MAO-Glo Assay); type: biochemical
MAO-A enzyme = MAO-A enzyme (Homo sapiens (Human), UniProt P21397); experiment: Measurement of MAO-A inhibitory activity (MAO-Glo Assay); type: biochemical

SMILES	pIC50 (MAO-B enzyme)	pIC50 (MAO-A enzyme)
O=C(NC1CCC(F)(F)CC1)c1cc([C@@H]2C[C@H]2NC2CCOCC2)cs1 (relative stereo) [Example 29, N-(4,4-difluorocyclohexyl)-4-(trans-2-(tetrahydro-2H-pyran-4-ylamino)cyclopropyl)thiophene-2-carboxamide hydrochloride]	< 4.00	
Cn1cc(NC(=O)c2cc([C@@H]3C[C@H]3NC3CCC3)cs2)cn1 (relative stereo) [Example 61, 4-(trans-2-(cyclobutylamino)cyclopropyl)-N-(1-methyl-1H-pyrazol-4-yl)thiophene-2-carboxamide dihydrochloride]	< 4.00	< 4.00
Cc1nnc(NC(=O)c2cc([C@@H]3C[C@H]3NCC3CC3)cs2)s1 [Example 82, 4-((1S,2R)-2-((cyclopropylmethyl)amino)cyclopropyl)-N-(5-methyl-1,3,4-thiadiazol-2-yl)thiophene-2-carboxamide dihydrochloride]		< 4.00
Cc1sc(C(=O)Nc2cnn(C)c2)cc1[C@H]1C[C@@H]1NCC1CC1 [Example 103, 4-((1R,2S)-2-((cyclopropylmethyl)amino)cyclopropyl)-5-methyl-N-(1-methyl-1H-pyrazol-4-yl)thiophene-2-carboxamide dihydrochloride]	< 4.00	
O=C(NC1CCOCC1)c1csc(C2CC2NC2CCC2)c1 (single isomer, unassigned) [Example 43, hydrochloride]		< 4.00
Cc1nnc(NC(=O)c2cc([C@@H]3C[C@H]3NC3CCC3)cs2)s1 (relative stereo) [Example 57, 4-(trans-2-(cyclobutylamino)cyclopropyl)-N-(5-methyl-1,3,4-thiadiazol-2-yl)thiophene-2-carboxamide hydrochloride]		< 4.00
Cc1nnc(NC(=O)c2cc([C@@H]3C[C@H]3NC3CCC3)cs2)s1 [Example 116, 4-((1S,2R)-2-(cyclobutylamino)cyclopropyl)-N-(5-methyl-1,3,4-thiadiazol-2-yl)thiophene-2-carboxamide phosphate]		< 4.00
Cc1sc(C(=O)NC2CCC(F)(F)CC2)cc1[C@@H]1C[C@H]1NCC1CCOCC1 (relative stereo) [Example 8, N-(4,4-difluorocyclohexyl)-5-methyl-4-(trans-2-((tetrahydro-2H-pyran-4-ylmethyl)amino)cyclopropyl)thiophene-2-carboxamide hydrochloride]	< 4.00	
Cc1sc(C(=O)NC2CCC(F)(F)CC2)cc1[C@@H]1C[C@H]1NC1CCOCC1 (relative stereo) [Example 21, N-(4,4-difluorocyclohexyl)-5-methyl-4-(trans-2-(tetrahydro-2H-pyran-4-ylamino)cyclopropyl)thiophene-2-carboxamide fumarate]	4.06	
O=C(NC1CCOCC1)c1cc([C@@H]2C[C@H]2NCC2CC2)cs1 [Example 77, 4-((1S,2R)-2-((cyclopropylmethyl)amino)cyclopropyl)-N-(tetrahydro-2H-pyran-4-yl)thiophene-2-carboxamide hydrochloride]	< 4.00	
O=C(NC1CCOCC1)c1csc([C@@H]2C[C@H]2NCC2CC2)c1 [Example 115, 5-((1R,2R)-2-((cyclopropylmethyl)amino)cyclopropyl)-N-(tetrahydro-2H-pyran-4-yl)thiophene-3-carboxamide fumarate]	< 4.00	< 4.00
Cc1nnc(NC(=O)c2cc([C@H]3C[C@@H]3NC3CCC3)cs2)s1 [Example 85, 4-((1R,25)-2-(cyclobutylamino)cyclopropyl)-N-(5-methyl-1,3,4-thiadiazol-2-yl)thiophene-2-carboxamide dihydrochloride]		< 4.00
Cn1nc(C(=O)NC2CCC(F)(F)CC2)cc1[C@@H]1C[C@H]1NCC1CC1 (relative stereo) [Example 3, 5-(trans-2-((cyclopropylmethyl)amino)cyclopropyl)-N-(4,4-difluorocyclohexyl)-1-methyl-1H-pyrazole-3-carboxamide hydrochloride]		< 4.00
Cn1cc(NC(=O)c2cc([C@H]3C[C@@H]3NC3CCC3)cs2)cn1 [Example 90, 4-((1R,2S)-2-(cyclobutylamino)cyclopropyl)-N-(1-methyl-1H-pyrazol-4-yl)thiophene-2-carboxamide dihydrochloride]	< 4.00	< 4.00
Cc1nnc(NC(=O)c2ccc([C@@H]3C[C@H]3NCC3CC3)s2)s1 (relative stereo) [Example 37, 5-(trans-2-((cyclopropylmethyl)amino)cyclopropyl)-N-(5-methyl-1,3,4-thiadiazol-2-yl)thiophene-2-carboxamide dihydrochloride]		4.07
Cc1sc(C(=O)NC2CCC(F)(F)CC2)cc1[C@@H]1C[C@H]1NC1CCOCC1 [Example 93, N-(4,4-difluorocyclohexyl)-5-methyl-4-((1S,2R)-2-(tetrahydro-2H-pyran-4-ylamino)cyclopropyl)thiophene-2-carboxamide fumarate]	< 4.00	
O=C(NC1CCOCC1)c1csc(C2CC2NC2CCC2)c1 (single isomer, unassigned) [Example 42, hydrochloride]		< 4.00

SMILES	pIC50 (MAO-B enzyme)	pIC50 (MAO-A enzyme)
O=C(NC1CCC(F)(F)CC1)c1nc([C@@H]2C[C@H]2NCC2CC2)cs1 (relative stereo) [Example 35, 4-(trans-2-((cyclopropylmethyl)amino)cyclopropyl)-N-(4,4-difluorocyclohexyl)thiazole-2-carboxamide hydrochloride]	< 4.00	
Cn1nc(C(=O)NC2CCC(F)(F)CC2)cc1[C@@H]1C[C@H]1N (relative stereo) [Example 4, 5-(trans-2-aminocyclopropyl)-N-(4,4-difluorocyclohexyl)-1-methyl-1H-pyrazole-3-carboxamide hydrochloride]	< 4.00	
O=C(NC1CCOCC1)c1csc([C@@H]2C[C@H]2NCC2CC2)c1 (relative stereo) [Example 32, 5-(trans-2-((cyclopropylmethyl)amino)cyclopropyl)-N-(tetrahydro-2H-pyran-4-yl)thiophene-3-carboxamide hydrochloride]	< 4.00	< 4.00
O=C(NC1CCOCC1)c1cc([C@H]2C[C@@H]2NCC2CC2)cs1 [Example 75, 4-((1R,2S)-2-((cyclopropylmethyl)amino)cyclopropyl)-N-(tetrahydro-2H-pyran-4-yl)thiophene-2-carboxamide hydrochloride]	< 4.00	
Cn1cc(NC(=O)c2cc([C@@H]3C[C@H]3NC3CCC3)cs2)cn1 [Example 89, 4-((1S,2R)-2-(cyclobutylamino)cyclopropyl)-N-(1-methyl-1H-pyrazol-4-yl)thiophene-2-carboxamide dihydrochloride]	< 4.00	< 4.00
Cc1sc(C(=O)NC2CCC(F)(F)CC2)cc1[C@H]1C[C@@H]1NC1CCOCC1 [Example 94, N-(4,4-difluorocyclohexyl)-5-methyl-4-((1R,2S)-2-(tetrahydro-2H-pyran-4-ylamino)cyclopropyl)thiophene-2-carboxamide fumarate]	< 4.00	
O=C(NC1CCOCC1)c1csc([C@@H]2C[C@H]2NCC2CC2)c1 [Example 113, 5-((1R,2R)-2-((cyclopropylmethyl)amino)cyclopropyl)-N-(tetrahydro-2H-pyran-4-yl)thiophene-3-carboxamide malate]	< 4.00	< 4.00
O=C(NC1CCOCC1)c1cc([C@@H]2C[C@H]2NCC2CC2)cs1 (relative stereo) [Example 64, 4-(trans-2-((cyclopropylmethyl)amino)cyclopropyl)-N-(tetrahydro-2H-pyran-4-yl)thiophene-2-carboxamide hydrochloride]	< 4.00	
O=C(NC1CCOCC1)c1csc([C@H]2C[C@@H]2NCC2CC2)c1 [Example 125, 5-((1S,2S)-2-((cyclopropylmethyl)amino)cyclopropyl)-N-(tetrahydro-2H-pyran-4-yl)thiophene-3-carboxamide hydrochloride]	< 4.00	< 4.00
Cc1nnc(NC(=O)c2cc3c(c([C@@H]4C[C@H]4NCC4CC4)c2)OCC3)s1 (relative stereo) [Example 10, 7-(trans-2-((cyclopropylmethyl)amino)cyclopropyl)-N-(5-methyl-1,3,4-thiadiazol-2-yl)-2,3-dihydro-1-benzofuran-5-carboxamide dihydrochloride]	< 4.00	< 4.00
O=C(NC1CCOCC1)c1csc([C@@H]2C[C@H]2NCC2CC2)c1 [Example 114, 5-((1R,2R)-2-((cyclopropylmethyl)amino)cyclopropyl)-N-(tetrahydro-2H-pyran-4-yl)thiophene-3-carboxamide succinate]	< 4.00	< 4.00
Cc1sc(C(=O)Nc2cnn(C)c2)cc1[C@@H]1C[C@H]1NCC1CCC1 [Example 121, 4-((1S,2R)-2-((cyclobutylmethyl)amino)cyclopropyl)-5-methyl-N-(1-methyl-1H-pyrazol-4-yl)thiophene-2-carboxamide dihydrochloride]		< 4.00
O=C(NC1CCOCC1)c1csc([C@@H]2C[C@H]2NCC2CC2)c1 [Example 120, 5-((1R,2R)-2-((cyclopropylmethyl)amino)cyclopropyl)-N-(tetrahydro-2H-pyran-4-yl)thiophene-3-carboxamide]	< 4.00	< 4.00
O=C(NC1CCOCC1)c1csc([C@@H]2C[C@H]2NCC2CC2)c1 [Example 71, 5-((1R,2R)-2-((cyclopropylmethyl)amino)cyclopropyl)-N-(tetrahydro-2H-pyran-4-yl)thiophene-3-carboxamide hydrochloride]	< 4.00	< 4.00
Cc1sc(C(=O)NC2CCOCC2)cc1[C@@H]1C[C@H]1NCC1CCC1 [Example 122, 4-((1S,2R)-2-((cyclobutylmethyl)amino)cyclopropyl)-5-methyl-N-(tetrahydro-2H-pyran-4-yl)thiophene-2-carboxamide hydrochloride]	< 4.00	
Cc1nnc(NC(=O)c2cc([C@H]3C[C@@H]3NCC3CC3)cs2)s1 [Example 83, 4-((1R,2S)-2-((cyclopropylmethyl)amino)cyclopropyl)-N-(5-methyl-1,3,4-thiadiazol-2-yl)thiophene-2-carboxamide dihydrochloride]		< 4.00

pIC50: −log10 of the molar value. Where a name gives a salt, the structure may show the parent alone.
